ChEMBL document CHEMBL1127067 (1993)

Columns and labels:
[1] = tested on: Mus musculus; test: Antitumor activity against P388 leukemia in BDF1/CDF1 mice expressed as percentage increase in life span at optimum dose of 25 mg/kg
[2] = tested on: Mus musculus; test: Antitumor activity against B-16 melanoma in BDF1 mice expressed as percentage increase in life span at optimum dose of 25 mg/kg
[3] = tested on: Mus musculus; test: Antitumor activity against P388 leukemia in BDF1/CDF1 mice expressed as percentage increase in life span at optimum dose of 200 mg/kg
[4] = tested on: Mus musculus; test: Antitumor activity against P388 leukemia in BDF1/CDF1 mice expressed as percentage increase in life span at optimum dose of 100 mg/kg
[5] = tested on: Mus musculus; test: Antitumor activity against B-16 melanoma in BDF1 mice expressed as percentage increase in life span at optimum dose of 12.5 mg/kg
[6] = species: Mus musculus; test: Number of survivors after treating 12 mice (infected with B16 melanoma) for 60 days
[7] = species: Mus musculus; test: Number of survivors after treating 42 mice (infected with P388 leukemia) for 30 days
[8] = tested on: Mus musculus; test: Antitumor activity against P388 leukemia in BDF1/CDF1 mice expressed as percentage increase in life span at optimum dose of 50 mg/kg

Structure (SMILES)	ILS [1]	ILS [2]	ILS [5]	Cures [6]	Cures [7]	also measured
O=P(O)(O)N1CCN=C1N/N=C/c1c2ccccc2c(/C=N/NC2=NCCN2P(=O)(O)O)c2ccccc12	265%	163%	–	–	–	–
O=P(Oc1ccccc1)(Oc1ccccc1)N1CCN=C1N/N=C/c1c2ccccc2c(/C=N/NC2=NCCN2P(=O)(Oc2ccccc2)Oc2ccccc2)c2ccccc12	–	–	–	–	–	ILS [3]: 60%
CCOP(=O)(OCC)N1CCN=C1N/N=C/c1c2ccccc2c(/C=N/NC2=NCCN2P(=O)(OCC)OCC)c2ccccc12	–	–	–	–	–	ILS [4]: 20%
CCN(/N=C/c1c2ccccc2c(/C=N/NC2=NCCN2P(=O)(O)O)c2ccccc12)C1=NCCN1	–	–	114%	3	2	ILS [8]: 132%
CCOP(=O)(OCC)N1CCN=C1N/N=C/c1c2ccccc2c(/C=N/NC2=NCCN2)c2ccccc12	> 164%	> 164%	–	3	3	–
O=P(O)(O)N1CCN=C1N/N=C/c1c2ccccc2c(/C=N/NC2=NCCN2)c2ccccc12	345%	–	120%	3	4	–
